Results taken from patent US11156615B2 (priority 2015, dated 2021).

How the values were obtained:
[1] = Glucose binding: isothermal fluorescence titrations, ratiometric (appKd) and monochromatic (trueKd) fits; details: fit of ratiometric emission signal (figure legends)
Description: 2 For a single glucose-binding site, the fractional saturation is given by
[formula] where ^apoIλ2 and ^satIλ2 are the emission intensities of the monochromatic signal at wavelength λ2 of the ligand-free and ligand-bound protein, respectively.

[2] = Glucose-dependent fluorescence emission intensity spectra of conjugates (Nanodrop3300); assay type: biochemical; details: isochromic / hypsochromic / bathochromic
Description: Semi-synthetic FRSs were engineered by site-specifically attaching thiol-reactive, environmentally sensitive fluorophores that respond to ligand-mediated conformational changes. Identification of FRS candidates that are useful for sensing applications comprises three steps: • 1. Cysteine scan. Mutant glucose-binding proteins containing single cysteines are constructed for site-specific attachment of thiol-reactive fluorophores. […] Candidate positions fall into three classes: endosteric, replacing a residue that contacts the ligand directly; peristeric, located at the rim of the binding site; allosteric (Marvin et al. 1997 Proc Natl Acad Sci USA, 94, 4366-71; Marvin 1998 J Am Chem Soc, 120, 7-11), located outside the binding site at sites that undergo local structural changes in concert with the hinge-bending motion. • 2. Fluorophore screening. Thiol-reactive, environmentally sensitive fluorophores are attached to each cysteine mutant prepared in step 1. • 3. Evaluation of the glucose-mediated change of all the fluorescent conjugates prepared in step 2. Responses to ligand binding in which there is both a change in fluorescence emission intensity and spectral shape was essential for chemometric applications, because such changes enable ratiometric measurements. Changes in spectral shape typically are accompanied by a shift in the wavelength of the emission intensity maxima. […]

Kd [1] [µM]	direction of emission wavelength shift upon glucose binding [2]	Substance
1000	hypsochromic	16C⋅Acrylodan: E. coli GGBP F16C mutant Acrylodan conjugate
400	hypsochromic	16C⋅Badan: E. coli GGBP F16C mutant Badan conjugate
